Experimental data published in patent US20030114375A1, “Method for treating cystic fibrosis” (The Government of the USA, Dept of Health and Human …, priority 1994, published 2003).

Protein sequences, listed by entry. Tags and fused reporters are not part of them.
UniProt P25099, whole entry: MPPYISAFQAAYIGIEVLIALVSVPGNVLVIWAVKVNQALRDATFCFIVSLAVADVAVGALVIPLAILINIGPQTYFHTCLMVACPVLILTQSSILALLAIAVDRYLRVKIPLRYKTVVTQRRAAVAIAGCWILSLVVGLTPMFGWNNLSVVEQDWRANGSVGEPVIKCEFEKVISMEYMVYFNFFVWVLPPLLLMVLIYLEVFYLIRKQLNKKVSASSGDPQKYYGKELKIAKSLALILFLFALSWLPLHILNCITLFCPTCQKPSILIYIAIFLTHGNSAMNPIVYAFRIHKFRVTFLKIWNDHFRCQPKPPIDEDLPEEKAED

Target: T1, A1-adenosine receptor (Rattus norvegicus, UniProt P25099)
T1 construct: Rat cerebral cortical membranes and striatal membranes were prepared; from tissue; host or cells: rat cerebral cortex membranes
Test: Inhibition of [3H]N6-phenylisopropyladenosine binding to A1 receptors

Cn1c(=O)c2[nH]cnc2n(C)c1=O [Compound 1, theophylline, reference compound]
Affinity for A1 receptor: little affinity
